According to patent publication US6936585B2, “Corticotropin releasing factor 2 receptor agonists” (priority 2002, dated 2005):

Columns and labels:
CRF2R = target: T1, CRF2R (Homo sapiens, UniProt Q13324); assay: CRF2R agonist activation (EC50 / Emax), called comparative CRF binding; format: cell-based; details: for Emax: read-out: CRF2R Emax
T1 sequence (Q13324 1-411): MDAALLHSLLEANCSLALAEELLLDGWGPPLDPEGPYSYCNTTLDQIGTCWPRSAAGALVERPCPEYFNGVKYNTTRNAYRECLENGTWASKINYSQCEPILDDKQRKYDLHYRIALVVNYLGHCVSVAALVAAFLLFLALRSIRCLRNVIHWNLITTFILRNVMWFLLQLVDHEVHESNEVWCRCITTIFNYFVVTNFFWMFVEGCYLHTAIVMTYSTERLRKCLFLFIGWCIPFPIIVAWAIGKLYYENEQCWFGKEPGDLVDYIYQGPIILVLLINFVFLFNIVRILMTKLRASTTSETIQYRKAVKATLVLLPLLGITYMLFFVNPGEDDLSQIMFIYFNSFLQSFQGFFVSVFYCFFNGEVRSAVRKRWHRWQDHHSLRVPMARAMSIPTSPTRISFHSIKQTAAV
Outline: (§1)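 Receptor-expressing cells are contacted with test peptide or the vehicle it is dissolved in. Lysates are then assayed for cAMP, or expression of a CRE-coupled reporter is quantitated. Engineered cells carrying receptor-G-protein fusions may replace full-length receptors.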

CRF1R = target: T2, CRF1R (Homo sapiens, UniProt P34998); assay: CRF1R agonist activation (EC50 / Emax), called comparative CRF binding; format: cell-based; details: for EC50: CRF1R EC50; for Emax: read-out: CRF1R Emax
T2 sequence (P34998 24-415): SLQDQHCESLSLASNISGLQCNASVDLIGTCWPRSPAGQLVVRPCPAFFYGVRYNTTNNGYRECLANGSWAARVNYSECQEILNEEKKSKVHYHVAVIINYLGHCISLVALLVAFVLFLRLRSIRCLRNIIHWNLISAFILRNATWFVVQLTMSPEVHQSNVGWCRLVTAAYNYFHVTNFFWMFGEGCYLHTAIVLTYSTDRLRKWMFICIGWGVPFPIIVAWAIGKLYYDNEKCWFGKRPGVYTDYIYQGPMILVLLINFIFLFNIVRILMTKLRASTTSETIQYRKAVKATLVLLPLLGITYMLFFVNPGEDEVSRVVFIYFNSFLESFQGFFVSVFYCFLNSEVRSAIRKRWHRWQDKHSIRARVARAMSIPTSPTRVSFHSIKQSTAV
Outline: as §1

| SMILES | EC50 (CRF2R) [nM] | Emax (CRF2R) [%] | EC50 (CRF1R) [nM] | Emax (CRF1R) [%] |
| --- | --- | --- | --- | --- |
| CC[C@H](C)[C@H](NC(=O)[C@@H](NC(=O)[C@H](CC(=O)O)NC(=O)[C@H](CC(C)C)NC(=O)[C@H](CC(C)C)NC(=O)[C@H](CC(C)C)NC(=O)[C@H](CCCNC(=N)N)NC(=O)[C@H](CC(N)=O)NC(=O)[C@H](CC(N)=O)NC(=O)[C@H](C)NC(=O)[C@H](C)NC(=O)[C@H](CCC(N)=O)NC(=O)[C@H](CCC(N)=O)NC(=O)[C@H](CCCCN)NC(=O)[C@H](CCC(=O)O)NC(=O)[C@H](CCCCN)NC(=O)[C@H](CCC(=O)O)NC(=O)[C@H](CCC(N)=O)NC(=O)[C@H](CCCCN)NC(=O)[C@H](CCC(=O)O)NC(=O)[C@@H](NC(=O)[C@H](CCC(=O)O)NC(=O)[C@@H](NC(=O)[C@H](CCSC)NC(=O)[C@H](CCCCN)NC(=O)[C@H](CCCNC(=N)N)NC(=O)[C@H](CC(C)C)NC(=O)[C@H](CC(C)C)NC(=O)[C@H](Cc1ccc(O)cc1)NC(=O)[C@H](CCCNC(=N)N)NC(=O)[C@@H]1CCCN1C(=O)[C@H](CC(C)C)NC(=O)[C@H](CC(=O)O)NC(=O)[C@@H](NC(=O)[C@H](CO)NC(=O)[C@@H](NC(=O)[C@@H]1CCCN1C(=O)[C@@H]1CCCN1C(=O)CNC(=O)[C@@H]1CCC(=O)N1)[C@@H](C)CC)[C@@H](C)CC)[C@@H](C)CC)[C@@H](C)CC)[C@@H](C)O)C(N)=O [compound 65] | 67.9 | 64 | > 100 | 16 |
| CC[C@H](C)[C@H](NC(=O)[C@H](CCCNC(=N)N)NC(=O)[C@H](C)NC(=O)[C@H](CC(N)=O)NC(=O)[C@@H](NC(=O)[C@@H](NC(=O)[C@H](C)NC(=O)[C@H](CCC(N)=O)NC(=O)[C@H](CCC(N)=O)NC(=O)[C@H](CCCCN)NC(=O)[C@H](CCC(=O)O)NC(=O)[C@H](CCCCN)NC(=O)[C@H](CCC(=O)O)NC(=O)[C@H](CCC(N)=O)NC(=O)[C@H](CCCCN)NC(=O)[C@H](CCC(=O)O)NC(=O)[C@@H](NC(=O)[C@H](CCC(=O)O)NC(=O)[C@@H](NC(=O)[C@H](CCSC)NC(=O)[C@H](CCCCN)NC(=O)[C@H](CCCNC(=N)N)NC(=O)[C@H](CC(C)C)NC(=O)[C@H](CC(C)C)NC(=O)[C@H](CCC(N)=O)NC(=O)[C@H](CC(C)C)NC(=O)[C@@H]1CCCN1C(=O)[C@H](CC(C)C)NC(=O)[C@H](CC(=O)O)NC(=O)[C@@H](NC(=O)[C@H](CO)NC(=O)[C@@H](NC(=O)[C@@H]1CCCN1C(=O)[C@@H]1CCCN1C(=O)CNC(=O)[C@@H]1CCC(=O)N1)[C@@H](C)CC)[C@@H](C)CC)[C@@H](C)CC)[C@@H](C)CC)[C@@H](C)O)[C@@H](C)O)C(=O)N[C@@H](CC(C)C)C(=O)N[C@@H](C)C(=O)N[C@@H](CCCNC(=N)N)C(=O)N[C@H](C(N)=O)C(C)C [compound 144] | 9.16 | 85.5 | 567 | 100 |
| CC[C@H](C)[C@H](NC(=O)[C@@H](NC(=O)[C@H](CC(=O)O)NC(=O)[C@H](CC(C)C)NC(=O)[C@H](CC(C)C)NC(=O)[C@H](CC(C)C)NC(=O)[C@H](CCCNC(=N)N)NC(=O)[C@H](CC(N)=O)NC(=O)[C@H](CC(N)=O)NC(=O)[C@H](C)NC(=O)[C@H](C)NC(=O)[C@H](CCC(N)=O)NC(=O)[C@H](CCC(N)=O)NC(=O)[C@H](CCCCN)NC(=O)[C@H](CCC(=O)O)NC(=O)[C@H](CCCCN)NC(=O)[C@H](CCC(=O)O)NC(=O)[C@H](CCC(N)=O)NC(=O)[C@H](CCCCN)NC(=O)[C@H](CCC(=O)O)NC(=O)[C@@H](NC(=O)[C@H](CCC(=O)O)NC(=O)[C@@H](NC(=O)[C@H](CCSC)NC(=O)[C@H](CCCCN)NC(=O)[C@H](CCCNC(=N)N)NC(=O)[C@H](CC(C)C)NC(=O)[C@H](CC(C)C)NC(=O)[C@H](C)NC(=O)[C@H](Cc1ccccc1)NC(=O)[C@@H]1CCCN1C(=O)[C@H](CC(C)C)NC(=O)[C@H](CC(=O)O)NC(=O)[C@@H](NC(=O)[C@H](CO)NC(=O)[C@@H](NC(=O)[C@@H]1CCCN1C(=O)[C@@H]1CCCN1C(=O)CNC(=O)[C@@H]1CCC(=O)N1)[C@@H](C)CC)[C@@H](C)CC)[C@@H](C)CC)[C@@H](C)CC)[C@@H](C)O)C(N)=O [compound 307] | 5.82 | 96.5 | 78.4 | 92.7 |
| CC[C@H](C)[C@H](NC(=O)[C@@H](NC(=O)[C@H](CC(=O)O)NC(=O)[C@H](CC(C)C)NC(=O)[C@H](CC(C)C)NC(=O)[C@H](CC(C)C)NC(=O)[C@H](CCCNC(=N)N)NC(=O)[C@H](CC(N)=O)NC(=O)[C@H](CC(N)=O)NC(=O)[C@H](C)NC(=O)[C@H](C)NC(=O)[C@H](CCC(N)=O)NC(=O)[C@H](CCC(N)=O)NC(=O)[C@H](CCCCN)NC(=O)[C@H](CCC(=O)O)NC(=O)[C@H](CCCCN)NC(=O)[C@H](CCC(=O)O)NC(=O)[C@H](CCC(N)=O)NC(=O)[C@H](CCCCN)NC(=O)[C@H](CCC(=O)O)NC(=O)[C@@H](NC(=O)[C@H](CCC(=O)O)NC(=O)[C@@H](NC(=O)[C@H](CCSC)NC(=O)[C@H](CCCCN)NC(=O)[C@H](CCCNC(=N)N)NC(=O)[C@H](CC(C)C)NC(=O)[C@H](CC(C)C)NC(=O)[C@H](C)NC(=O)[C@H](Cc1ccc(O)cc1)NC(=O)[C@@H]1CCCN1C(=O)[C@H](CC(C)C)NC(=O)[C@H](CC(=O)O)NC(=O)[C@@H](NC(=O)[C@H](CO)NC(=O)[C@@H](NC(=O)[C@@H]1CCCN1C(=O)[C@@H]1CCCN1C(=O)CNC(=O)[C@@H]1CCC(=O)N1)[C@@H](C)CC)[C@@H](C)CC)[C@@H](C)CC)[C@@H](C)CC)[C@@H](C)O)C(N)=O [compound 309] | – | 99.9 | – | 96.3 |
| CC[C@H](C)[C@H](NC(=O)[C@H](CCC(=O)O)NC(=O)[C@H](C)NC(=O)[C@H](CC(C)C)NC(=O)[C@H](CC(C)C)NC(=O)[C@H](CCC(=O)O)NC(=O)[C@H](C)NC(=O)[C@H](CC(N)=O)NC(=O)[C@H](CC(N)=O)NC(=O)[C@H](C)NC(=O)[C@H](C)NC(=O)[C@H](CCC(N)=O)NC(=O)[C@H](CCC(N)=O)NC(=O)[C@H](CCCCN)NC(=O)[C@H](CCC(=O)O)NC(=O)[C@H](CCCCN)NC(=O)[C@H](CCC(=O)O)NC(=O)[C@H](CCC(N)=O)NC(=O)[C@H](CCCCN)NC(=O)[C@H](CCC(=O)O)NC(=O)[C@@H](NC(=O)[C@H](CCC(=O)O)NC(=O)[C@@H](NC(=O)[C@@H](NC(=O)[C@H](CCCCN)NC(=O)[C@H](CCCNC(=N)N)NC(=O)[C@H](CC(C)C)NC(=O)[C@H](CC(C)C)NC(=O)[C@H](CCC(N)=O)NC(=O)[C@H](Cc1ccccc1)NC(=O)[C@@H]1CCCN1C(=O)[C@H](CC(C)C)NC(=O)[C@H](CC(=O)O)NC(=O)[C@@H](NC(=O)[C@H](CO)NC(=O)[C@@H](NC(=O)[C@@H]1CCCN1C(=O)[C@@H]1CCCN1C(=O)CNC(=O)[C@@H]1CCC(=O)N1)[C@@H](C)CC)[C@@H](C)CC)C(C)C)[C@@H](C)CC)[C@@H](C)CC)C(N)=O [compound 272] | 23.3 | 100 | ≥ 1000 | 51.1 |
| CC[C@H](C)[C@H](NC(=O)[C@H](CCCNC(=N)N)NC(=O)[C@H](C)NC(=O)[C@H](CC(N)=O)NC(=O)[C@@H](NC(=O)[C@@H](NC(=O)[C@H](C)NC(=O)[C@H](CCC(N)=O)NC(=O)[C@H](CCC(N)=O)NC(=O)[C@H](CCCCN)NC(=O)[C@H](CCC(=O)O)NC(=O)[C@H](CCCCN)NC(=O)[C@H](CCC(=O)O)NC(=O)[C@H](CCC(N)=O)NC(=O)[C@H](CCCCN)NC(=O)[C@H](CCC(=O)O)NC(=O)[C@@H](NC(=O)[C@H](CCC(=O)O)NC(=O)[C@@H](NC(=O)[C@H](CCSC)NC(=O)[C@H](CCCCN)NC(=O)[C@H](CCCNC(=N)N)NC(=O)[C@H](CC(C)C)NC(=O)[C@H](CC(C)C)NC(=O)[C@H](Cc1ccc(O)cc1)NC(=O)[C@@H](NC(=O)[C@@H]1CCCN1C(=O)[C@H](CC(C)C)NC(=O)[C@H](CC(=O)O)NC(=O)[C@@H](NC(=O)[C@H](CO)NC(=O)[C@@H](NC(=O)[C@@H]1CCCN1C(=O)[C@@H]1CCCN1C(=O)CNC(=O)[C@@H]1CCC(=O)N1)[C@@H](C)CC)[C@@H](C)CC)[C@@H](C)CC)[C@@H](C)CC)[C@@H](C)CC)[C@@H](C)O)[C@@H](C)O)C(=O)N[C@@H](CC(C)C)C(=O)N[C@@H](C)C(=O)N[C@@H](CCCNC(=N)N)C(=O)N[C@H](C(N)=O)C(C)C [compound 149] | 26.2 | 95.5 | ≥ 1000 | 40.7 |
